Results reported in paper PMC6628712 (Journal of enzyme inhibition and medicinal chemistry, 2016).

Target: T1, CYP26A1 (Homo sapiens, UniProt O43174)
T1 sequence (O43174 1-497): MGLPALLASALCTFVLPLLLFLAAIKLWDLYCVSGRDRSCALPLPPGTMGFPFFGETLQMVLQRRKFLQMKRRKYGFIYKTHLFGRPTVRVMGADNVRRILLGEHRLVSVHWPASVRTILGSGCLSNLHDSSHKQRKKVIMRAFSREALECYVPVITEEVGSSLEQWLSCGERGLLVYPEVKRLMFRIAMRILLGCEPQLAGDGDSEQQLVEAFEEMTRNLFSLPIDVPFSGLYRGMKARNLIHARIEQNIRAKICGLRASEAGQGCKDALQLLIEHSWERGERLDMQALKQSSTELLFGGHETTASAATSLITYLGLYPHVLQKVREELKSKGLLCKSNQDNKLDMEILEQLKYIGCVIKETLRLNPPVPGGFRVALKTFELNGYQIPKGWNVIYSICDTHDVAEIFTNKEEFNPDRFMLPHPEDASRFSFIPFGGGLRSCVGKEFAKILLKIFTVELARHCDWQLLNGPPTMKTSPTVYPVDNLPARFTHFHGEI
Test: Inhibition of CYP26A1-catalyzed tazarotenic acid sulfoxide formation
Assay type: biochemical
Settings: read-out: CYP26A1 IC50, tazarotenic acid; recombinant CYP26A1; probe tazarotenic acid sulfoxide formation; ± standard error

- IC50: 840 ± 870 nM
SMILES: Clc1cccc(C(c2ccc3[nH]cnc3c2)n2ccnc2)c1 (stereo not shown) [Liarazole]
